Experiment: Storage stability of curcuminoids solubilized in steviol glycoside solutions, HPLC
Experimental: In order to evaluate the stability in 10% (w/v) SGs, the water-soluble curcuminoids were analyzed by HPLC for 1 month. […] In order to achieve better solubility, transglycosylation is regarded as an important procedural phenomenon that leads to structural modifications and derivatizations that result in enhanced biological activities and improved solubility. Moreover, heating in the case of microwave irradiation is usually dependent on the nature of the sample, the solvent employed, and the irradiation power level mediated through the ionic conduction and dipole rotation (also known as dipole polarization) of the microwaves. In the absence of ions, water dipoles are found in the free form and may experience dipole rotation due to microwave radiation-induced oscillation.

Substance: rebaudioside [Reb-A]
- stability of aqueous curcuminoid solutions on long-term storage: did not exhibit good stability
